Reference: US20260384421A1, “NOVEL COMPOUNDS THAT CAN BE USED AS THERAPEUTIC AGENTS” (published 2026)

Tests used:
[1] = test system: PANC-1 cells; test: alamarBlue proliferation assay with PANC-1 cells; settings: read-out: Activity on PANC-1: IC50, DMEM medium, 10% FBS
[2] = test system: SW-948 cells; test: alamarBlue proliferation assay with SW-948 cells (glucose-free L-15 medium); settings: read-out: Activity on SW-948: IC50, Leibovitz's L-15 medium, 10% FBS, 0% CO2
[3] = test system: T-47D cells; test: alamarBlue proliferation assay with T-47D cells; settings: read-out: Activity on T-47D (IC50), day 5
[4] = test system: JURKAT cells; test: alamarBlue proliferation assay with JURKAT cells; settings: read-out: Activity on JURKAT (IC50), day 5
[5] = test system: TT cells; test: alamarBlue proliferation assay with TT cells; settings: read-out: Activity on TT (IC50), day 5
Procedure: These hyperproliferative processes can be benign or malignant and include hyperplasia, neoplasia, cancer and pre-cancerous lesions, and metastases. […] To this end, according cells were seeded into 96-well plates (CORNING #3598) suitable for fluorescence assays at following initial cell numbers: 1000 cells per well for HPEK; 3000 cells per well for MDA-MB-231, 8000 cells per well for ZR-75-30, 1500 cells per well for HCC-1395, 1500 cells per well for HCC-1937, 3000 cells per well for T-47D, 1500 cells per well for JURKAT, 5000 cells per well for RPMI-8402, 9000 cells per well for LOUCY, 1500 cells per well for TANQUE, 9000 cells per well for REC-1, 1000 cells per well for HL-60, 1000 cells per well for NB-4, 9000 cells per well for TT, 2000 cells per well for HeLa, 2000 cells per well for 23132/87, 9000 cells per well for SW-948, 700 cells per well for HCT-116, 1500 cells per well for BHY, 700 cells per well for A-431, 1500 cells per well for HEP-G2, 500 cells per well for NCI-H460, 1000 cells per well for A-549, 1500 cells per well for PANC-1, 2500 cells per well for U-87 MG, 700 cells per well for A-375, 1500 cells per well for RVH-421, 2000 cells per well for SW-1353, 500 cells per well for C2C12, 500 cells per well for LL/2, and 3000 cells per well for CF21.T. In a volume of 90 μL per well of culture medium the cells were treated with compounds at indicated final concentrations by adding 10 μL per well of 10× compound working solutions from 1:100 pre-diluted 1000× compound DMSO stock-solutions in H2O (Water For Injection, WFI, Fisher Scientific, Gibco™ #A12873) or with the empty carrier DMSO (AppliChem, #A3672) at 0.1% v/v as control yielding a final volume of 100 μL per well. […] The readout was taken with a multi-well plate-reader (Tecan Spark®) in the fluorescence mode with applying a filter for excitation at 560 nm (band width 10 nm) and for emission at 590 nm (band width 10 nm). […]

| Compound | IC50 [1] [µM] | IC50 [2] [µM] | IC50 [3] [µM] | further results |
| --- | --- | --- | --- | --- |
| CS(=O)(=O)c1ccc(CN2CCN(C(=O)c3ccc(Oc4ccc(C5CCC6(CC5)OCCO6)cc4CO)cc3)CC2)cc1 | ≤ 1 | – | – | – |
| O=C(c1ccc(Oc2ccc(C3CCC4(CC3)OCCO4)cc2CO)cc1)N1CCN(Cc2ccc(Cl)cn2)CC1 | ≤ 1 | – | ≤ 5 | – |
| COCC1(COC)CCC(c2ccc(Oc3ccc(C(=O)N4CCN(Cc5ccc(Cl)cc5)CC4)cc3)c(CO)c2)CC1 | – | – | ≤ 5 | – |
| O=C(c1ccc(Oc2ccc(C3CCC4(CC3)OCCO4)cc2CO)cc1)N1CCN(Cc2cccs2)CC1 | – | ≤ 5 | – | IC50 [5]: ≤ 5 µM |
| O=C(c1ccc(Oc2ccc(C3CCC4(CC3)OCCO4)cc2CO)cn1)N1CCN(Cc2ccccc2)CC1 | – | – | ≤ 5 | – |
| COc1ccc(CN2CCN(C(=O)c3ccc(Oc4ccc(C5CCC6(CC5)OCCO6)cc4CO)cc3)CC2)cn1 | ≤ 0.2 | – | – | – |
| O=C(c1ccc(Oc2ccc(C3CCC4(CC3)OCCO4)cc2CO)cc1)N1CCN(Cc2ccc3oc(=O)ccc3c2)CC1 | ≤ 0.2 | – | – | – |
| CN(C)C(=O)c1ccc(CN2CCN(C(=O)c3ccc(Oc4ccc(C5CCC6(CC5)OCCO6)cc4CO)cc3)CC2)cc1 | ≤ 5 | – | – | – |
| O=C(c1ccc(Oc2ccc(C3CCC4(CC3)OCCO4)cc2CO)cc1)N1CCN(Cc2ccsc2)CC1 | – | ≤ 1 | – | IC50 [5]: ≤ 5 µM |
| Cn1c(CN2CCN(C(=O)c3ccc(Oc4ccc(C5CCC6(CC5)OCCO6)cc4CO)cc3)CC2)cc2ccccc21 | ≤ 0.2 | – | – | – |
| O=C(c1ccc(Oc2ccc(C3CCC4(CC3)OCCO4)cc2CO)cc1)N1CCN(Cc2ccc(O)cc2)CC1 | – | ≤ 1 | – | IC50 [4]: ≤ 5 µM |
| COC1CCC(c2ccc(Oc3ccc(C(=O)N4CCN(Cc5ccc(Cl)cn5)CC4)cc3)c(CO)c2)CC1 (stereo not drawn) | – | – | ≤ 5 | – |
| O=C(c1ccc(Oc2ccc(C3CCC4(CC3)SCCS4)cc2CO)cn1)N1CCN(Cc2ccc(Cl)cc2)CC1 | – | – | ≤ 5 | – |
| O=C(c1ccc(Oc2ccc(C3CCC4(CC3)SCCCS4)cc2CO)cn1)N1CCN(Cc2ccc(Cl)cc2)CC1 | – | – | ≤ 5 | – |
| O=C(c1ccc(Oc2ccc(C3CCC4(CCCC4)CC3)cc2CO)cc1)N1CCN(Cc2ccccc2)CC1 | ≤ 20 | – | – | – |

Now from value to compound, other results behind:

| IC50 [1] [µM] | IC50 [2] [µM] | IC50 [3] [µM] | Compound | further results |
| --- | --- | --- | --- | --- |
| ≤ 5 | – | – | O=C(c1ccc(Oc2ccc(C3CCC4(CC3)OCCO4)cc2CO)cc1)N1CC2CN(Cc3ccc(Cl)cc3)CC2C1 (stereo not drawn) | – |
| – | ≤ 5 | – | O=C(c1ccc(Oc2ccc(C3CCC4(CC3)OCCO4)cc2CO)cc1)N1CCN(Cc2ccoc2)CC1 | – |
| ≤ 0.2 | ≤ 0.2 | – | O=C(c1ccc(Oc2ccc(C3CCC4(CC3)OCCO4)cc2CO)cc1)N1CCN(Cc2ccc(Cl)cc2)CC1 | IC50 [4]: ≤ 20 µM; IC50 [5]: ≤ 5 µM |
| – | – | ≤ 5 | COCC1(COC)CCC(c2ccc(Oc3ccc(C(=O)N4CCN(Cc5ccc(OC)cc5)CC4)cc3)c(CO)c2)CC1 | – |
| – | ≤ 1 | – | O=C(c1ccc(Oc2ccc(C3CCC4(CCCO4)CC3)cc2CO)cc1)N1CCN(Cc2ccccc2)CC1 (stereo not drawn) | IC50 [4]: ≤ 1 µM |
| ≤ 20 | – | – | O=C(c1ccc(Oc2ccc(C3CCC4(CC3)OCCO4)cc2CO)cc1)N1CCCN(Cc2ccc(C(F)(F)F)cc2)CC1 | – |
| – | ≤ 0.2 | – | O=C(c1ccc(Oc2ccc(C3CCC4(CC3)OCCO4)cc2CO)cc1)N1CCN(Cc2ccc([N+](=O)[O-])cc2)CC1 | IC50 [4]: ≤ 20 µM |
| ≤ 5 | – | – | COC(=O)c1ccc(CN2CCN(C(=O)c3ccc(Oc4ccc(C5CCC6(CC5)OCCO6)cc4CO)cc3)CC2)cc1 | – |
| – | – | ≤ 5 | O=Cc1cc(C2CCC3(CC2)SCCCS3)ccc1Oc1ccc(C(=O)N2CCN(Cc3ccc(Cl)cc3)CC2)nc1 | – |
| – | – | ≤ 5 | COc1ccc(CN2CCN(C(=O)c3ccc(Oc4ccc(C5CCC6(CC5)SCCCS6)cc4CO)cn3)CC2)cc1 | – |
| – | ≤ 0.2 | – | O=C(c1ccc(Oc2ccc(C3CCC4(CC3)OCCO4)cc2CO)cc1)N1CCN(Cc2ccc3ccccc3c2)CC1 | IC50 [4]: ≤ 20 µM |
